# The list shows a part of the results, in another mix than the full data. Some tests of the compounds listed are not included; inactive here does not mean inactive elsewhere. Active and inactive are the calls of the source. No stated cut-off is given here; in the data, active means inhibition above about 40%.
# The chains behind the UniProt entries cited, without tags or fusion partners.
# UniProt Q07820, whole entry: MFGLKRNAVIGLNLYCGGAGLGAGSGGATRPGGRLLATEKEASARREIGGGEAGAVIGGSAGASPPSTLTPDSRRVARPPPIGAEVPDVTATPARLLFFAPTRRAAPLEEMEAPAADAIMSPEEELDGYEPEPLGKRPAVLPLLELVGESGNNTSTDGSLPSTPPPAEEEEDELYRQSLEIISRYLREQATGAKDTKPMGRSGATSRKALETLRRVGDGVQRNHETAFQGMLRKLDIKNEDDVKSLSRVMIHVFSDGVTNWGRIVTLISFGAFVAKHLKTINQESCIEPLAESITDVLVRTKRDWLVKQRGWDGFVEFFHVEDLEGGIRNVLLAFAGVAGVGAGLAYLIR
# Target: Induced myeloid leukemia cell differentiation protein Mcl-1 (Homo sapiens) (UniProt Q07820)
# Test: Mcl-1/Bim interaction disruptors – biochemical, bead-based flow cytometry, multiplex, primary screen (AID 1009);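 further: 0% = no compound tracer wells and 100% = peptide blocker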
# Conditions: Bim peptide-Mcl-1 binding, at 10 µM, active compounds read high
row,Structure (SMILES),inhibition
1,O=C(OC1CN2CCC1CC2)C(CO)(c1ccccc1)c1ccccc1 (centres undefined),inactive: -2%
2,CN(C)c1cccc(C(=O)NCC2(N(C)C)CCCCC2)c1,inactive: -5%
3,COc1cccc(C(=O)NCC2(N3CCCCC3)CCCCC2)c1,inactive: 0%
4,Cc1ccccc1C(=O)NCC1(N2CCCCC2)CCCCC1,inactive: 0%
5,CN(C)C1CCCC1OC(=O)C(O)(c1ccccc1)c1ccccc1 (centres undefined),inactive: -3%
6,C=CCN1CCN(CCOC(=O)C(O)(c2ccccc2)c2ccccc2)CC1,inactive: 0%
7,CCN1CCCC(OC(=O)C2(O)c3ccccc3C=Cc3ccccc32)C1 (centres undefined),inactive: -6%
8,O=C(NCC1(N2CCCCC2)CCCCC1)c1cc([N+](=O)[O-])ccc1Cl,inactive: -4%
9,CC(C)N1C(=O)CC2(CCN(CCOC(=O)C(O)(c3ccccc3)c3ccccc3)CC2)C1=O,inactive: 0%
